This is an account of results in ChEMBL document CHEMBL2407034, “Discovery of AZD8931, an Equipotent, Reversible Inhibitor of Signaling by EGFR, HER2, and HER3 Receptors” (ACS Med Chem Lett, 2013).

The chains behind the UniProt entries cited, without tags or fusion partners.
UniProt P21860, whole entry: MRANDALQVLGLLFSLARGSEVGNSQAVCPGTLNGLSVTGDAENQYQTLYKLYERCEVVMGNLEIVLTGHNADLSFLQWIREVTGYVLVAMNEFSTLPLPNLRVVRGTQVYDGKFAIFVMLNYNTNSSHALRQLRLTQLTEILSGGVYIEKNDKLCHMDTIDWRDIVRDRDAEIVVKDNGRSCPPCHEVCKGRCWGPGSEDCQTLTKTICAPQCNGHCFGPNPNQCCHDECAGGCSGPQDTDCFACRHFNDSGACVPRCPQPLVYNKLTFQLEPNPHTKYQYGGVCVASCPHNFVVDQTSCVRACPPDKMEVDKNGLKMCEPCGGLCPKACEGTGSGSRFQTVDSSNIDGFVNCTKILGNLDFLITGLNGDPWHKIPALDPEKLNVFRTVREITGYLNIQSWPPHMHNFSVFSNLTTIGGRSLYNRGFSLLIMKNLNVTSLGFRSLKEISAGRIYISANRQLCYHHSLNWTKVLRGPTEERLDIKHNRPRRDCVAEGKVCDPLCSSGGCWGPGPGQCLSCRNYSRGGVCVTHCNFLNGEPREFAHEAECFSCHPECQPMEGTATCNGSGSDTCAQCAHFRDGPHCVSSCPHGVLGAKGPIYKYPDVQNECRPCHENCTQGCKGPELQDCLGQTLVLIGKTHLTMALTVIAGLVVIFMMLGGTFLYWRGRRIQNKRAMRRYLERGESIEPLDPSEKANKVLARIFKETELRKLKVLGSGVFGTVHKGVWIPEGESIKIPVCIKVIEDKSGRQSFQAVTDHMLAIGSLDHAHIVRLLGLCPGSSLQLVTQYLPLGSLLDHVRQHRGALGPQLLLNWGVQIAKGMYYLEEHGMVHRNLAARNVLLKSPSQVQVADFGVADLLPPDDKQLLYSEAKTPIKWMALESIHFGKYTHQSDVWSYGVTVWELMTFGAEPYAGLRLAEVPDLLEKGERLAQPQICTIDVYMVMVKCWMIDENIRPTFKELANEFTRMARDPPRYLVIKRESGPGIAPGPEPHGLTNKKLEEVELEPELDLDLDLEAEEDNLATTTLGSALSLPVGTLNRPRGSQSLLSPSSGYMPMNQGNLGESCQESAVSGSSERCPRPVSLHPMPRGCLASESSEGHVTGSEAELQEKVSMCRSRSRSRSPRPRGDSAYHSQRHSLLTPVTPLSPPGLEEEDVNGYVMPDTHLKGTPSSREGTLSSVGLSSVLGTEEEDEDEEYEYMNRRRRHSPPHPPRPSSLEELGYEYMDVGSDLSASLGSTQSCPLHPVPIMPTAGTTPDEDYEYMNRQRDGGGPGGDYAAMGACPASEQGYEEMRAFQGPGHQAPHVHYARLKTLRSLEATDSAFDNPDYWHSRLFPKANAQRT

For the assay, the target named is Receptor tyrosine-protein kinase erbB-3 (Homo sapiens, UniProt P21860).

For `CNC(=O)CN1CCC(Oc2cc3c(Nc4cccc(Cl)c4F)ncnc3cc2OC)CC1` [SAPITINIB], half-maximal inhibition (IC50) was put at 4 nM.
